Reference: patent publication US9403810B2, “Carboxamide derivatives” (Novartis AG, priority 2014, dated 2016)

Protein sequences, listed by entry. Tags and fused reporters are not part of them.
UniProt Q9HCE7, whole entry: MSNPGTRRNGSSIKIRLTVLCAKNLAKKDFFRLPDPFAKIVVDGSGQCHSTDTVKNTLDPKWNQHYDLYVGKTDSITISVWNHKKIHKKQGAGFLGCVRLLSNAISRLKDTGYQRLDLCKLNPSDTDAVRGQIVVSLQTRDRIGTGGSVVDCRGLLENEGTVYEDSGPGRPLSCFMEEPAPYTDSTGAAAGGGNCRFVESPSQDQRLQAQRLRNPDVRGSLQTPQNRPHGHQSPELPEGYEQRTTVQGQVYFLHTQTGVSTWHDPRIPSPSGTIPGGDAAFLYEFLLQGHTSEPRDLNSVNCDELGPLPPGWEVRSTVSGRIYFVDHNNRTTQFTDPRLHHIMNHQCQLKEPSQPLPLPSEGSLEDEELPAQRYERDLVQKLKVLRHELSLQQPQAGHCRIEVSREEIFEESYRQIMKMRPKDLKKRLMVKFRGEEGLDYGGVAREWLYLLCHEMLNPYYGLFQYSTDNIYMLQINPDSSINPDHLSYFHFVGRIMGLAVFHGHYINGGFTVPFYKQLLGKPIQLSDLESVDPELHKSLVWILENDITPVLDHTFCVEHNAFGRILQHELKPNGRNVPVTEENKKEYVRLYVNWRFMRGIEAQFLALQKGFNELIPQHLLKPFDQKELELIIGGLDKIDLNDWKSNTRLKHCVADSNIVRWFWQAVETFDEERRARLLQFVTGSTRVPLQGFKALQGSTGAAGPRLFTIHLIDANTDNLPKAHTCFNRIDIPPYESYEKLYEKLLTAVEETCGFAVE

These compounds were tested against Smurf-1 (Homo sapiens (Human), UniProt Q9HCE7) (assay: HECT E3 ligase autoubiquitinylation TR-FRET assay (Smurf-1)). Details: 8-point dose-response curve, 3 nM to 10 uM; 45 min incubation.
Type: biochemical
From the text: To determine the HECT E3 ligase selectivity of the compounds, a panel of biochemical HECT E3 ligase autoubiquitinylation assays was employed (Smurf-1, Smurf-2, WWP1, WWP2, ITCH, Nedd4, Nedd4L and E6AP). The conjugation of ubiquitin to a protein substrate is a multistep process. In an initial ATP-requiring step, a thioester bond is formed between the carboxyl terminus of ubiquitin and an internal cystein residue of the ubiquitin-activating enzyme (E1). Activated ubiquitin is then transferred to a specific cystein residue of an ubiquitin-conjugating enzyme (E2). E2s donate ubiquitin to a HECT E3 ligase (E3) from which it is transferred to the substrate protein. HECT E3 ligases can auto-ubiquitinylate. This event is detected in the TR-FRET (Time-Resolved Fluorescence Resonance Energy Transfer) assay used in this panel. The reaction mix contains E1, E2, tagged-E3, biotin-conjugated ubiquitin, the compound and ATP in a suitable buffer and is incubated for 45 minutes to allow auto-ubiquitinylation of the E3 ligase. To measure the extent of ubiquitinylated E3 ligase by TR-FRET, the donor fluorophore Europium cryptate (Eu3+ cryptate), conjugated to streptavidin which subsequently binds to biotinylated ubiquitin, and the modified allophycocyanin XL665 (HTRF® primary acceptor fluorophore) coupled to a tag-specific antibody (HA, His or GST), which recognizes the respective E3 ligase fusion proteins, are added after the reaction is complete. When these two fluorophores are brought together by a bimolecular interaction (in this case ubiquitinylation of the E3 ligase), a portion of the energy captured by the Cryptate during excitation is released through fluorescence emission at 620 nm, while the remaining energy is transferred to XL665. This energy is then released by XL665 as specific fluorescence at 665 nm. Light at 665 nm is emitted only through FRET with Europium.
Test and reference compounds are prepared at 180× [final] in 90% DMSO, and diluted 1:3 in 90% DMSO.
For the biochemical assay panel, 50 nl of the test compounds, reference compounds and buffer/DMSO control are transferred to the respective wells of a 384-well white GREINER “SMALL VOLUME” PS plate. The assay panel is run at room temperature on a Biomek FX liquid handling workstation. To the assay plates containing 50 nl compound or control solutions in 90% DMSO, 4.5 ul of E3 ligase solution were added per well, followed by 4.5 ul of the pre-incubated E1/E2/Ub mix or the pre-diluted ubiquitin (LOW control). Plates are shaken vigorously after each addition. In this assay the compound concentrations range from 3 nM to 10 uM in an 8-point dose-response curve.
After 45 min of incubation the ubiquitinylation reactions were stopped by adding 4.5 ul 2 mM NEM, immediately followed by 4.5 ul of a detection solution including the XL665-labeled antibody and the streptavidin-coupled europium to give a total volume of 18 ul. After an incubation time of 45 min in the dark, the plates are transferred into the Pherastar fluorescence reader to measure the TR-FRET signal.

In order of falling IC50:
1. Cc1c(C(=O)Nc2c(C)n(C)n(C3CCCCC3)c2=O)noc1[C@H]1CC[C@@H](C)CO1 [Example 22, N-(2-cyclohexyl-1,5-dimethyl-3-oxo-2,3-dihydro-1H-pyrazol-4-yl)-4-methyl-5-((2R,5R)-5-methyltetrahydro-2H-pyran-2-yl)isoxazole-3-carboxamide]  0.57 µM
2. Cc1c(C(=O)Nc2c(C)n(C)n(C3CCCCC3)c2=O)noc1[C@@H]1C[C@@H](C(C)C)CO1 (single isomer, unassigned) [Example 24b, N-(2-Cyclohexyl-1,5-dimethyl-3-oxo-2,3-dihydro-1H-pyrazol-4-yl)-5-((2R,4R)-4-isopropyltetrahydrofuran-2-yl)-4-methylisoxazole-3-carboxamide or N-(2-cyclohexyl-1,5-dimethyl-3-oxo-2,3-dihydro-1H-pyrazol-4-yl)-5-((2S,4S)-4-isopropyltetrahydrofuran-2-yl)-4-methylisoxazole-3-carboxamide]  0.25 µM
3. Cc1c(C(=O)Nc2c(C)n(C)n(C3CCCCC3)c2=O)noc1[C@H]1C[C@H](C(C)(C)Br)CO1 (racemic) [Example 23, 5-((2R,4S)-4-(2-bromopropan-2-yl)tetrahydrofuran-2-yl)-N-(2-cyclohexyl-1,5-dimethyl-3-oxo-2,3-dihydro-1H-pyrazol-4-yl)-4-methylisoxazole-3-carboxamide and 5-((2S,4R)-4-(2-bromopropan-2-yl)tetrahydrofuran-2-yl)-N-(2-cyclohexyl-1,5-dimethyl-3-oxo-2,3-dihydro-1H-pyrazol-4-yl)-4-methylisoxazole-3-carboxamide]  0.16 µM
4. Cc1c(C(=O)Nc2c(C)n(C)n(C3CCCCC3)c2=O)noc1[C@H]1OC[C@H](C(C)(C)C)O1 (single isomer, unassigned) [Example 25b, 5-(4-(tert-Butyl)-1,3-dioxolan-2-yl)-N-(2-cyclohexyl-1,5-dimethyl-3-oxo-2,3-dihydro-1H-pyrazol-4-yl)-4-methylisoxazole-3-carboxamide]  0.075 µM
5. Cc1c(C(=O)Nc2c(C)n(C)n(C3CCCCC3)c2=O)noc1[C@H]1OC[C@H](C(C)(C)C)O1 (single isomer, unassigned) [Example 25d, 5-(4-(tert-Butyl)-1,3-dioxolan-2-yl)-N-(2-cyclohexyl-1,5-dimethyl-3-oxo-2,3-dihydro-1H-pyrazol-4-yl)-4-methylisoxazole-3-carboxamide]  0.074 µM
